For one experiment, the target named is T1, RARγ (Homo sapiens, UniProt P13631).
T1 construct: gal4 (fusion partner); expressed in transfected cells; host or cells: COS-7
Briefly: Transactivation assay for RAR gamma (gal4-RAR fusion, luciferase reporter, COS-7 cells). Type of experiment: cell-based. The following applies: ratio of test compound EC50 to that of atRA; inactive = no agonist action at the highest concentration tested. As to the method:
(§1) Transcriptional transactivation assays were performed with gal4 fusion receptor constructs, created using each of the RAR ligand binding domains, co-transfected with the pFR-luc (Stratagene™) reporter construct in COS-7 cells.
(§2) Briefly, on day 1, 96 well plates were seeded with 8000 cells per well then left to recover overnight. On day 2, the cells were co-transfected with 100 ng of reporter plasmid and 10 ng of the appropriate receptor plasmid per well using lipofectamine (Invitrogen™). On day 3, the lipofectamine containing media was replaced by a DMEM without phenol red, followed by the addition of test compound dissolved in 1 μL of DMSO to each well's 100 μL total volume. Finally, on day 4, the cells were lysed and their luciferase substrate was provided by the BrightGlo™ reagent (Promega™), the plates were then read on the MicroBeta TriLux™ (Perkin Elmer™).
(§3) Where replicate data has been generated, the data are quoted as a ratio of the mean EC50 from the separate experiments.
(In general: Reporter assays use an easily measured gene product as a stand-in for the process of interest.)

The chains behind the UniProt entries cited, without tags or fusion partners. Residues count along the entry.
UniProt P13631, 185-419 limits assumed, species assumed: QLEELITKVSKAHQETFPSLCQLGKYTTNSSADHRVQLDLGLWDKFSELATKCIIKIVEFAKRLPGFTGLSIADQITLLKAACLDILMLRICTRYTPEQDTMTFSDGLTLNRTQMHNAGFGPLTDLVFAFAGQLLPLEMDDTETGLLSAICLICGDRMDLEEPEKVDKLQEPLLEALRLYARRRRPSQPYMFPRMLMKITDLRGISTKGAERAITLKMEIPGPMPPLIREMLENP
UniProt P10826, 183-417 limits assumed, species assumed: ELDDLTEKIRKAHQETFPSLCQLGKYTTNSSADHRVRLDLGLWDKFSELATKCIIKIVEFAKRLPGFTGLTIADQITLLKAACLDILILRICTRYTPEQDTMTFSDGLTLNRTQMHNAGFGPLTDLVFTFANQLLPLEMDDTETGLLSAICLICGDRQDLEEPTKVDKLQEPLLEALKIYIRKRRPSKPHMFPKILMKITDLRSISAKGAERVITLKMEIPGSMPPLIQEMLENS

The target in the next experiment is T2, RARβ (Homo sapiens, UniProt P10826).
T2 construct: gal4 (fusion partner); expressed in transfected cells; host or cells: COS-7
Briefly: Transactivation assay for RAR beta (gal4-RAR fusion, luciferase reporter, COS-7 cells). Format: cell-based. The following applies: ratio of test compound EC50 to that of atRA; inactive = no agonist action at the highest concentration tested. The procedure:
as §1, §2, §3

For the molecule `CC(C)(C)Oc1c(Cl)cc(C(=O)Nc2ccc(C(=O)O)cc2)cc1Cl` [AAA-031, 4-(4-(tert-Butoxy)-3,5-dichlorobenzamido)benzoic acid], the RARγ activity ratio on RARγ was 6250.

As to `CCOc1c(Cl)cc(C(=O)Nc2ccc(C(=O)O)cc2)cc1OC(C)C` [AAA-078, 4-(3-Chloro-4-ethoxy-5-isopropoxybenzamido)benzoic acid], at RARβ, the RARβ activity ratio turned out to be 103. Besides, the RARγ activity ratio on RARγ turned out to be 8083.

Turning to `O=C(O)c1ccc(NC(=O)c2cc(Cl)c(OC3CCCC3)c(Cl)c2)cc1` [AAA-001, 4-(3,5-Dichloro-4-(cyclopentyloxy)benzamido)benzoic acid], at RARβ, the RARβ activity ratio is recorded as 342.

As for `CCOc1c(OC(C)C)cc(C(=O)Nc2ccc(C(=O)O)cc2)cc1OC(C)C` [AAA-008, 4-(4-Ethoxy-3,5-diisopropoxybenzamido)benzoic acid], the RARβ activity ratio at RARβ is listed as 4560. Also, the RARγ activity ratio on RARγ was found to be 56900.

On to `CC(C)Oc1cc(C(=O)Nc2ccc(C(=O)O)cc2)cc(Cl)c1OC(C)C` [AAA-050, 4-(3-Chloro-4,5-diisopropoxybenzamido)benzoic acid], for which, at RARγ, the RARγ activity ratio was determined as 1386.

In the case of `COc1c(Cl)cc(C(=O)Nc2ccc(C(=O)O)cc2)cc1OC(C)C` [AAA-076, 4-(3-Chloro-5-isopropoxy-4-methoxybenzamido)benzoic acid], on RARγ, the RARγ activity ratio turned out to be 10833.

(Values after patent US9447028B2, “Therapeutic aryl-amido-aryl compounds and their use” (King's College London, priority 2009, dated 2016).)
